Test [1] addresses Beta Secretase enzyme (BACE) (Homo sapiens (Human), UniProt P56817). Briefly: In vitro enzymatic BACE FRET assay. The conditions noted are these: read-out: BACE1 Enzyme assay IC50. It counts as biochemical.
A further test addresses BACE (Homo sapiens (Human), UniProt P56817). Briefly: In vitro BACE cell-based assay (Aβ40 in conditioned medium, sandwich ELISA). (An ELISA detects its analyte on a solid surface through an enzyme-linked reagent.)
Another test has as its target Cathepsin D (Cat D) (Homo sapiens (Human), UniProt P07339). Description: In vitro enzymatic Cathepsin D (Cat D) FRET assay. It counts as biochemical. As to conditions: read-out: CatD IC50.
In a further test the test system is Abeta 40. Description: In vivo inhibition of beta-secretase: Abeta 40 reduction in CSF and brain of the rat. As to conditions: after 4 hrs.

Protein sequences, listed by entry. Tags and fused reporters are not part of them. Residues count along the entry.
UniProt P56817, 46-501: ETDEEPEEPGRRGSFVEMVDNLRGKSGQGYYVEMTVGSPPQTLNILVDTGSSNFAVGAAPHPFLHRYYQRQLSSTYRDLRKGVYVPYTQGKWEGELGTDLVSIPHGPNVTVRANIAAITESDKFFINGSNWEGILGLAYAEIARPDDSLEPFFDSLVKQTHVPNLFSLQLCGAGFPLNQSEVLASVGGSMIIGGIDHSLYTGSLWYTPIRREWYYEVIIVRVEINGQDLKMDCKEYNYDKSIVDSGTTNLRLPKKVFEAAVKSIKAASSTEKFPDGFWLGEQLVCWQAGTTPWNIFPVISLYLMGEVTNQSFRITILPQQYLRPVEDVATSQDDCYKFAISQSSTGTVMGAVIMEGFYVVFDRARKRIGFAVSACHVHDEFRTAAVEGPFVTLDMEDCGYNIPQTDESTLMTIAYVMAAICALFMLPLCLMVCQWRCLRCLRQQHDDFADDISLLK
UniProt P07339, 65-412, species assumed: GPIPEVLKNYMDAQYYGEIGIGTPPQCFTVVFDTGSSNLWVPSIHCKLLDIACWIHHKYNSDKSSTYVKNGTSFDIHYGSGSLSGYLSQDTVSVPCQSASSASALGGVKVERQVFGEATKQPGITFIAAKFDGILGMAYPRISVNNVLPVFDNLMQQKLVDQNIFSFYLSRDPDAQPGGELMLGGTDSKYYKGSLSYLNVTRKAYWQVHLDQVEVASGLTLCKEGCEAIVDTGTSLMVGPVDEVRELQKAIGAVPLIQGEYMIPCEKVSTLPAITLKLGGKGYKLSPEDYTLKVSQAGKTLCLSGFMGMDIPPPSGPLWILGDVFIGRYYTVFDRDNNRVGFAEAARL

As a reminder, the IC50 is the midpoint of a concentration-inhibition curve. Turning to `Cc1cc(OCC#CC(C)(C)O)cnc1C(=O)Nc1ccc(F)c(C2(C)N=C(N)O[C@H]3C[C@H]32)c1` (mixture of isomers) [Example 29, N-(3-([1(R,S),5(S,R),6(R,S)]-3-amino-5-methyl-2-oxa-4-azabicyclo[4.1.0]hept-3-en-5-yl)-4-fluorophenyl)-5-((4-hydroxy-4-methylpent-2-yn-1-yl)oxy)-3-methylpicolinamide], the values for the IC50 (in test [1]; on BACE) were 207 nM and 0.656 µM, respectively.
Take `Cc1cc(NC(=O)c2ccc(Cl)cn2)cc([C@@]2(C(F)F)N=C(N)O[C@@H]3C[C@@H]32)c1F` (racemic) [Example 30, N-(3-([(1R,S),(5S,R),(6R,S)]-3-amino-5-(difluoromethyl)-2-oxa-4-azabicyclo[4.1.0]hept-3-en-5-yl)-4-fluoro-5-methylphenyl)-5-chloropicolinamide]: in test [1], the IC50 is 43.2 nM.
With `NC1=NC(c2nc(NC(=O)c3ccc(Cl)cn3)ccc2F)(C(F)F)[C@H]2C[C@H]2O1` (mixture of isomers) [Example 321, rac N-(6-((1R,5S,6R)-3-amino-5-(difluoromethyl)-2-oxa-4-azabicyclo[4.1.0]hept-3-en-5-yl)-5-fluoropyridin-2-yl)-5-chloropicolinamide], the IC50 on Cathepsin D (Cat D) worked out at 212000 nM; on BACE, 0.295 µM.
For `N#Cc1ccc(C(=O)Nc2cc(F)c(F)c([C@@]3(C(F)F)N=C(N)O[C@@H]4C[C@@H]43)c2)nc1` [Example 113, N-(3-((1R,5S,6R)-3-amino-5-(difluoromethyl)-2-oxa-4-azabicyclo[4.1.0]hept-3-en-5-yl)-4,5-difluorophenyl)-5-cyanopicolinamide], in the test with Abeta 40 (Abeta 40 in rat CSF, 10 mpk), the “% reduction of rat CSF levels at 10 pmk” value is recorded as 65%. Also, in the test on Abeta 40 (Abeta 40 in rat brain), the “% reduction of rat brain levels at 10 mpk” value amounted to 58%.
In the case of `Cc1cc(NC(=O)c2ccc(Cl)cn2)cc([C@@]2(C(F)F)N=C(N)O[C@@H]3C[C@@H]32)c1F` [Example 123, N-(3-((1R,5S,6R)-3-amino-5-(difluoromethyl)-2-oxa-4-azabicyclo[4.1.0]hept-3-en-5-yl)-4-fluoro-5-methylphenyl)-5-chloropicolinamide], the half-inhibitory concentration (IC50) in test [1] was found to be 30.5 nM.
Consider `Cc1cc(NC(=O)c2ccc(Cl)cn2)cc([C@]2(C(F)F)N=C(N)O[C@H]3C[C@H]32)c1F` [Example 124, N-(3-((1 S,5R,6S)-3-amino-5-(difluoromethyl)-2-oxa-4-azabicyclo[4.1.0]hept-3-en-5-yl)-4-fluoro-5-methylphenyl)-5-chloropicolinamide], for which the IC50 in test [1] was 3530 nM.
On to `NC1=N[C@](CF)(c2cc(NCc3nn(C(F)F)cc3Cl)ccc2F)[C@H]2C[C@H]2O1` [Example 373, (1R,5S,6R)-5-(5-(((4-chloro-1-(difluoromethyl)-1H-pyrazol-3-yl)methyl)amino)-2-fluorophenyl)-5-(fluoromethyl)-2-oxa-4-azabicyclo[4.1.0]hept-3-en-3-amine], for which the values for the IC50 (in test [1]; on Cathepsin D (Cat D); at BACE) were 159 nM, 234000 nM and 0.0318 µM, respectively.
For `N#Cc1cnc2c(c1)CC[C@H]2Nc1ccc(F)c([C@@]2(C(F)F)N=C(N)O[C@@H]3C[C@@H]32)c1` [Example 401, (R)-7-((3-((1R,5S,6R)-3-amino-5-(difluoromethyl)-2-oxa-4-azabicyclo[4.1.0]hept-3-en-5-yl)-4-fluorophenyl)amino)-6,7-dihydro-5H-cyclopenta[b]pyridine-3-carbonitrile], at Cathepsin D (Cat D), the IC50 came to 555000 nM.
On to “(R)-4-((3-((1R,5S,6R)-3-amino-5-(difluoromethyl)-2-oxa-4-azabicyclo[4.1.0]hept-3-en-5-yl)-4-fluorophenyl)amino)chroman-7-carbonitrile and (S)-4-((3-((1R,5S,6R)-3-amino-5-(difluoromethyl)-2-oxa-4-azabicyclo[4.1.0]hept-3-en-5-yl)-4-fluorophenyl)amino)chroman-7-carbonitrile [Example 383]”, for which the IC50 at Cathepsin D (Cat D) was determined as 206000 nM.

Source of the values: patent US9085576B2 (AMGEN INC., priority 2013, dated 2015).
